Target: the molecule itself
Experiment: native MS

B1: HfqΔCTD (truncated Hfq lacking the CTDs) (domain or fragment, E. coli, UniProt P0A6X3 1-65, looked up)
chain: MAKGQSLQDPFLNALRRERVPVSIYLVNGIKLQGQIESFDQFVILLKNTVSQMVYKHAISTVVPS
  stoichiometry N: 6
